Measured values from PMC8429249 (Journal of medicinal chemistry, 2021).

Tested on: HeLa cells
Details: 5 μM FAM-labeled peptide, 2 h, 1% FBS

## ΦOSQΦΠ-K-fArR-J-BBK-NH2 [Peptide B3-4]
  fold lower cellular entry efficiency than B4-27: 4 fold
